Protein sequences, listed by entry. Tags and fused reporters are not part of them.
UniProt P35372, whole entry, looked up: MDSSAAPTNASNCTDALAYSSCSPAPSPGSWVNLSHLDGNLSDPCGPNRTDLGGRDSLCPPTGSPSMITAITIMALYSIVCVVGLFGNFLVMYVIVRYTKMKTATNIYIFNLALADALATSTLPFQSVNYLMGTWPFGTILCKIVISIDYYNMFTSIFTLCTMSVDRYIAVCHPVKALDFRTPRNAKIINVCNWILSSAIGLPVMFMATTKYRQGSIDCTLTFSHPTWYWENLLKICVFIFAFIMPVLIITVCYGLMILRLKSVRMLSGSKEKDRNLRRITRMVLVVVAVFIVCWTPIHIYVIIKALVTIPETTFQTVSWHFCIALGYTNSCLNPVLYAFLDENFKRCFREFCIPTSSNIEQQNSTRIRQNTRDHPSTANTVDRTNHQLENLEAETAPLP

In patent publication US11071731B2, “Allosteric modulators of the mu opioid receptor” (Chiromics, LLC, priority 2017, dated 2021):

Key:
MOR [1] = molecular target: T1, MOR (Homo sapiens, UniProt P35372); experiment: cAMP (adenylyl cyclase inhibition), allosteric effect on EC20 fentanyl agonism; details: for Max. Response: EC20 Fentanyl agonism of MOR
MOR [2] = molecular target: T1, MOR; experiment: β-arrestin recruitment, allosteric effect on EC20 fentanyl agonism; details: for Max. Response: EC20 Fentanyl agonism of MOR
[3] = read-out: RC50, EC20 Fentanyl agonism of MOR

Row | Compound | Max. Response (MOR [1]) | EC50 (MOR [1]; [3]) [µM] | Max. Response (MOR [2]) | EC50 (MOR [2]; [3]) [µM]
1 | COc1ccc(C2CCCCN2S(=O)(=O)c2ccc(Cl)cc2)cc1Br (single isomer, unassigned) | 95 | 2.01 | 179 | 5.79
2 | Fc1ccc(Cl)cc1CN1CCCCC1c1cccc(C(F)(F)F)n1 (stereo not drawn) [compound 2] | 0 | – | 19 | –
